Values of other authors as cited in patent publication US20240115569A1, “METHODS FOR BLOCKING HER2 SIGNALING FOR TREATING PULMONARY FIBROSIS” (CEDARS-SINAI MEDICAL CENTER, priority 2021, published 2024).

Protein sequences, listed by entry. Tags and fused reporters are not part of them. Residues count along the entry.
UniProt P08637, 17-254: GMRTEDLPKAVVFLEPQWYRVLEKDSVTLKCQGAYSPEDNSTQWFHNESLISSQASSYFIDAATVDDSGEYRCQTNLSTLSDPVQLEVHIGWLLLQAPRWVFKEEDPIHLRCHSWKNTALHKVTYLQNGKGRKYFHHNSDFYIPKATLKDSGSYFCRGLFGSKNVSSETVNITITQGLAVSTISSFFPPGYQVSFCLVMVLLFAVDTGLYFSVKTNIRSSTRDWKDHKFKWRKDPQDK

Experiments:
CD32B FcγRIIB = target: T1, CD32B FcγRIIB (Homo sapiens, UniProt P31994); settings: in comparison to trastuzumab; cited from earlier work
T1 sequence (P31994 43-310): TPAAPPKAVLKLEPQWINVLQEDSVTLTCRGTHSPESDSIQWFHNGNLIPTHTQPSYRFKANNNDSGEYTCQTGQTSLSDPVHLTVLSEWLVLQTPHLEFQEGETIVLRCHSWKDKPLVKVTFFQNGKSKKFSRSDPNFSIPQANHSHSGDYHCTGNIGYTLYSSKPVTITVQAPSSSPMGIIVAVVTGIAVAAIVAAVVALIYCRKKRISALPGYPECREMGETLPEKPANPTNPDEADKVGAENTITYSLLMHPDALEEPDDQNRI

CD16A FcγRIIIA = CD16A FcγRIIIA (Homo sapiens, UniProt P08637); settings: in comparison to trastuzumab; cited from earlier work

Question: For “margetuximab-cmkb: monoclonal antibody derivative of trastuzumab that binds to the same epitope of the HER2 receptor, engineered IgG1 Fc region”, which “less affinity for inhibitory CD32B FcγRIIB” value (CD32B FcγRIIB) is on record?
Answer: 8.4 ×

Question: What about the “greater affinity for stimulatory CD16A FcγRIIIA” value (CD16A FcγRIIIA) of the same substance?
Answer: up to 6.6 ×
